Laboratory results taken from publication PMC12363342, “Investigating the N-terminal linker histone H1 subtypes as substrates for JmjC lysine demethylases” (RSC Chemical Biology, 2025).

Tested on: KDM3B
Test: LC-MS demethylation activity assay, KDM3B
Type: biochemical, human
Conditions: 2 μM KDM, 10 μM H1/H3 peptide, 10 μM FAS, 100 μM LAA, 20 μM 2OG, 50 mM HEPES pH 7.5, 2 h, room temperature, T (tri-) initial methylation state
Method: The substrate specificity of JmjC KDMs for H1 was examined using liquid chromatography coupled to mass spectrometry (LC-MS) assays. The H1 peptides (10 μM) were incubated with the recombinant KDM (2 μM) in HEPES buffer at pH 7.5 at room temperature for 2 h, in the presence of ferrous(II) ammonium sulfate (FAS, 10 μM), sodium ascorbate (LAA, 100 μM) and 2OG (20 μM), and then quenched with formic acid. N^ε-Methylated H3K9 and H3K36 peptides were used as positive controls (Fig. 3–5 and Fig. S2–S6).[26]
The catalytic domains of the JmjC KDMs used were recombinantly produced as reported in either Escherichia coli (KDM4AM1-L359,[38] KDM4DM1-L359,[39] KDM4EM1-R336,[30] KDM6BD1141–E1590[40] and KDM3CL2157-L2500) or Sf9 cells (KDM3AT515–S1317, KDM3B882–1761, and KDM5DM1-D775) as N-terminally His6-tagged proteins. […] To produce proteins, DNA sequences encoding for KDM3A, KDM3B and KDM5D were inserted into the pFB-LIC vector, containing a TEV-protease cleavable N-terminal 6x-histidine tag via ligation independent cloning (LIC). The resultant plasmids were transformed into baculovirus and Sf9 cells ([…]) which were infected with the virus stock. The cells were grown at 27 °C and 90 rpm for 70 h. Cells were then harvested and suspended in 100 mL of lysis buffer (50 mM HEPES-NaOH, pH 7.4, 500 mM NaCl, 20 mM imidazole, 0.5 mM Tris (2-carboxyethyl)phosphine (TCEP), 5% (v/v) glycerol). […] The supernatant was loaded onto a Ni-NTA gravity column, washed with 10 column volume of lysis buffer and eluted using the elution buffer (50 mM HEPES-NaOH, pH 7.4, 500 mM NaCl, 300 mM imidazole, 0.5 mM TCEP, 5% (v/v) glycerol). The eluted protein was further purified using S200 gel filtration column chromatography (50 mM HEPES-NaOH, pH 7.4, 150 mM NaCl, 0.5 mM TCEP and 5% glycerol). Protein purity was analysed by SDS-PAGE and further confirmed by mass spectrometry. Selected fractions were pooled, concentrated and stored at −80 °C.
All reagents were purchased from Sigma Aldrich and were of the highest grade available. Ferrous(II) ammonium sulfate (FAS) solutions were prepared freshly by dissolving FAS to 400 mM in 20 mM HCl with subsequent dilution to 1 mM using deionized water. Fresh 2OG (10 mM) and LAA (50 mM) solutions were prepared by dissolving the solids in deionised water. All enzyme reactions were performed in 384-well plates (Greiner Bio-One) with a final reaction volume of 50 μL. Substrate mixtures contained 50 mM HEPES pH 7.5, LAA (100 μM), FAS (10 μM), 2OG (20 μM) and an H1 isoform peptide (10 μM). Reactions were initiated by the addition of enzyme to a final concentration of 2.0 μM. After 2 h, the reactions were stopped by the addition of 5 μL of 10% (v/v) LC-MS grade formic acid (Fisher Scientific) to a final concentration of 1% (v/v). […]

Substance: ARTKQTARKme3STGGKA [Peptide H3K9me3, histone H3 residues 1-15 peptide with tri-methylated K9; commercial positive control, reference compound]
- KDM3B demethylation activity, T: ● [red]
